# Source: PubChem BioAssay AID1918969 (ICCB-Longwood Screening Facility, Harvard Medical School, 2023)
# Only a part is listed here, and it is no random draw. Some of these compounds have results that are not shown, active ones among them. Calls of active or inactive are those of the source. No stated cut-off is given here; in the data, active means inhibition above about 27% (passing the limit was not always enough); inactive means the rest.
# Test system: HCMV UL50-UL53 nuclear egress complex (human cytomegalovirus)
# Test: inhibitors of HCMV UL50-UL53 interaction, biochemical, HTRF (AID 1918969)
# Details: normalized percent inhibition, stronger effect = higher value, concentration not given here
row,SMILES,inhibition
1,Cc1ccc2oc(C(=O)NCC3(N(C)C)CCCCC3)c(C)c2c1,inactive: -12.1%
2,O=C(NCC1(N2CCOCC2)CCCCC1)c1cnc(Cl)c(Cl)c1,inactive: -9.8%
3,CN(C)C1(CNC(=O)c2cccc(Cl)c2)CCCCC1,inactive: -16.4%
4,CN(C)C1(CNC(=O)c2ccccc2F)CCCCC1,inactive: -17.9%
5,CN(C)C1(CNC(=O)c2ccccc2[N+](=O)[O-])CCCCC1,inactive: -26.7%
6,CN(C)c1ccc(C(=O)NCC2(N(C)C)CCCCC2)cc1,inactive: -14.6%
7,Cc1cc(C)c2c(C)c(C(=O)NCC3(N(C)C)CCCCC3)oc2c1,inactive: -6.4%
8,CCCCOc1ccccc1C(=O)NCC1(N(C)C)CCCCC1,inactive: -13.3%
9,COc1ccc(OC)c(C=C(C#N)C#N)c1,inactive: -17.7%
10,Cc1c(C(=O)NCC2(N(C)C)CCCCC2)oc2ccccc12,inactive: -20.5%
11,Cc1cc2oc(C(=O)NCC3(N(C)C)CCCCC3)c(C)c2cc1Cl,inactive: -5.9%
12,CCOc1cccc(C(=O)NCC2(N(C)C)CCCCC2)c1,inactive: -19.9%
13,Cc1c(C(=O)NCC2(N(C)C)CCCCC2)oc2ccc(F)cc12,inactive: 3.7%
14,COc1ccc(C(=O)NCC2(N(C)C)CCCCC2)cc1Cl,inactive: -22.6%
15,CN(C)C1(CNC(=O)c2ccncc2)CCCCC1,inactive: -1.8%
16,N#CC(C#N)=Cc1ccccc1,inactive: -7.9%
17,Cc1ccc2c(C)c(C(=O)NCC3(N(C)C)CCCCC3)oc2c1,inactive: -19.3%
18,O=C(OC1CN2CCC1CC2)C(CO)(c1ccccc1)c1ccccc1 (stereo unspecified),inactive: -8%
19,COc1cccc(C(=O)NCC2(N3CCOCC3)CCCCC2)c1,inactive: 6.5%
20,CC(C)COc1ccc(C(=O)NCC2(N(C)C)CCCCC2)cc1,inactive: -35.7%
21,Cc1ccc2c(Cl)c(C(=O)NCC3(N(C)C)CCCCC3)sc2c1,inactive: -57.1%
22,COc1cc(C(=O)NCC2(N(C)C)CCCCC2)cc(OC)c1OC,inactive: -18.9%
23,Cc1cccc(C(=O)NCC2(N(C)C)CCCCC2)c1,inactive: -29.5%
24,CN1C2CCC1CC(OC(=O)C(O)(c1ccccc1)c1ccccc1)C2 (stereo unspecified),inactive: -22.9%
25,O=C(NCC1(N2CCCCC2)CCCCC1)c1ccc2c(c1)OCCO2,inactive: -19.6%
26,CC(C)Oc1ccc(C(=O)NCC2(N(C)C)CCCCC2)cc1,inactive: -28%
